{"sequences": {"note": "Protein sequences, listed by entry. Tags and fused reporters are not part of them. Lines headed by an entry give the natural chain unless they say otherwise; changes in a name come on top.", "UniProt P28335": "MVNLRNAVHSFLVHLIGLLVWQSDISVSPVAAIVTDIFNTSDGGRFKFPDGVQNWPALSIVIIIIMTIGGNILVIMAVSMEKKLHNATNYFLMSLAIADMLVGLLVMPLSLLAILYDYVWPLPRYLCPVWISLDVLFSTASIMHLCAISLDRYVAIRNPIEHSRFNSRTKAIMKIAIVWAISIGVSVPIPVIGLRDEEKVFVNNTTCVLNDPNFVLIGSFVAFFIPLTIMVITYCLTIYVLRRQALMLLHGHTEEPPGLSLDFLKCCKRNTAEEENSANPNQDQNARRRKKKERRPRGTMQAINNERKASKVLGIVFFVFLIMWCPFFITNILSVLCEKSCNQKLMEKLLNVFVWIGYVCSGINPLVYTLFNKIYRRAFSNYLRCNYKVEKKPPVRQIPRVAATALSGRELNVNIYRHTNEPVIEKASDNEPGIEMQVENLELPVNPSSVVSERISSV"}, "source": "ChEMBL document CHEMBL1128924", "about": "“Some benzenesulfonamido-substituted valerophenones that are selective antagonists for the 5-HT2C receptor” (Bioorg Med Chem Lett, 1996)", "biological_target": "5-hydroxytryptamine receptor 2C (Homo sapiens, UniProt P28335)", "assay": "Displacement of [3H]mesulergine from human cloned 5-hydroxytryptamine 2C receptor expressed in CHO-K1 cells", "assay_type": "cell-based"}
{"smiles": "CN1C[C@@H](NS(=O)(=O)N(C)C)C[C@@H]2c3cccc4c3c(cn4C)C[C@H]21", "note": "[MESULERGINE]", "values": [{"measurement": "Ki", "result": 2, "unit": "nM"}]}
